Reference: patent US7612081B2 (priority 2003, dated 2009)
Read-outs that look alike come from different tables or passages of the source.

Legend:
[1] = test system: MKN-28 human gastric carcinoma; settings: q4dx4
Procedure: Tumor fragments were inoculated on both flanks at day 0. Treatment started when tumors were just palpable. The molecule was given by oral route and intravenously according to the schedule q4d×4. During the treatment, animals were inspected every day for mortality. Physical appearance, behavior and general and local clinical signs of the mice will be observed daily. Any deviation from normality was recorded. All animals were weighed during the whole treatment period, in order to calculate the percent body weight loss due to the treatment.
Tumor volume inhibition % in treated over control tumors was evaluated 20 days after last treatment. To determine the antitumor activity of the drug, tumor diameters was measured biweekly with a Vernier caliper. The formula TV (mm^3)=[length (mm)×width (mm)^2]/2 was used, where the width and the length are the shortest and the longest diameters of each tumor, respectively.
When tumors reached a weight of about 2 g, the mice were sacrificed by cervical dislocation. LCK (log cell kill) as index of efficacy was calculated to evaluate the persistence of the effect of the molecule at the end of the treatment.

[2] = test system: NCl—H460 non-microcytoma lung cancer cells; assay: Cytotoxic activity on NCl—H460 cells (sulforodamine B)

7-[(N′,N″,N′″-tert-butoxycarbonyl)-spermine-imino-methyl]-20S-camptothecin [ST2544]
Tox ([1]; iv, 1 mg/kg): 0/4 | BWL % (body weight loss) ([1]; iv, 2 mg/kg): 6% | Tox ([1]; iv, 2 mg/kg): 0/4 | BWL % (body weight loss) ([1]; iv, 4 mg/kg): 0% | Tox ([1]; iv, 4 mg/kg): 0/4 | BWL % (body weight loss) ([1]; p.o., 1 mg/kg): 5% | Tox ([1]; p.o., 1 mg/kg): 0/4 | BWL % (body weight loss) ([1]; p.o., 2 mg/kg): 1% | Tox ([1]; p.o., 2 mg/kg): 0/4 | BWL % (body weight loss) ([1]; p.o., 4 mg/kg): 7% | LCK (1000 mm^3) (log cell kill) ([1]; p.o., 4 mg/kg): 1 | Tox ([1]; p.o., 4 mg/kg): 0/4 | Cytotoxicity on the lung cancer line (in words) [2]: very potent cytotoxicity
